The results in this text go back to US5973110A, “Cytotoxic T-lymphocyte antigen as cysteine protease inhibitor” (Bayer Corporation, priority 1995, dated 1999).

This assay has as its target human liver Cathepsin L (human, UniProt P07711). Briefly: enzyme inhibition, Dixon plot of 1/V vs. CTLA-2β concentration at 2.5 and 5 uM Z-Phe-Arg-AMC.

B1: recombinant (murine) CTLA-2β, monomeric form (other)
chain: MAAPSPDPSLDNEWKEWKTTFAKAYSLDEERHRRLMWEENKKKIEAHNADYERGKTSFYMGLNQFSDLTPEEFRTNCCGSSMCRGEMAPDLPEYEDLGKNSYLTPGRAQPE
As usually defined, the Ki is the dissociation constant of the complex between target and ligand, obtained from inhibition or displacement. A low value points to higher affinity. In turn, B1 registered a Ki of 22 nM.
